Measured values reported in paper PMC9330922, “Genomewide Analysis and Biological Characterization of Cathelicidins with Potent Antimicrobial Activity and Low Cytotoxicity from Three Bat Species” (Antibiotics, 2022).

System: HaCaT cells
Assay: In vitro cytotoxicity assay, WST-1 cell viability
Assay type: cell-based, Human
Details: 64 μg/mL, 24 h, WST-1, DMEM with 10% heat-inactivated FBS, triplicate
Procedure: HaCaT cells were cultured in Dulbecco’s modified Eagle’s medium (DMEM; Hyclone^TM, Logan, UT, USA) with 10% fetal bovine serum (FBS; Hyclone^TM) and 1% penicillin/streptomycin (Pen-Strep; Hyclone^TM) up to 80% confluence at 37 ℃ and 5% CO2. Cells were detached from the plate by adding 0.25% trypsin-EDTA solution (Gibco^TM; Carlsbad, CA, USA). In a 96-well plate, 2 × 10^4 cells were seeded per well and cultured for 24 h. Subsequently, the medium was replaced with 100 μL DMEM (Hyclone^TM) containing 10% heat-inactivated FBS. Peptides were added to each well at concentrations of 64 μg/mL and 160 μg/mL. As references for complete cell lysis, 64 μg/mL melittin (Sigma-Aldrich) and Triton X-100 (Sigma-Aldrich) were used. Untreated cells were used as negative controls. After 24 h incubation at 37 ℃ and 5 % CO2, 10 μL of coloring solution (Cell Proliferation Reagent WST-1^TM; Sigma Aldrich) was added to each well according to the manufacturer’s instructions. The absorbance at 450 nm (treated group and control) and 650 nm (background) was measured in each well using a microplate reader (xMarkTM spectrophotometer; Bio-Rad). The cell viability was calculated using the following equation. All experiments were performed in triplicate. Cell viability (%) = 100 × (OD (treated group) − OD(Background))/(OD (negative control) − OD (Background))(2)

CC[C@H](C)[C@H](NC(=O)CN)C(=O)NCC(=O)N[C@@H](C)C(=O)N[C@H](C(=O)N[C@@H](CC(C)C)C(=O)N[C@@H](CCCCN)C(=O)N[C@H](C(=O)N[C@@H](CC(C)C)C(=O)N[C@H](C(=O)N[C@H](C(=O)NCC(=O)N[C@@H](CC(C)C)C(=O)N1CCC[C@H]1C(=O)N[C@@H](C)C(=O)N[C@@H](CC(C)C)C(=O)N[C@H](C(=O)N[C@@H](CO)C(=O)N[C@@H](Cc1c[nH]c2ccccc12)C(=O)N[C@H](C(=O)N[C@@H](CCCCN)C(=O)N[C@@H](CCCNC(=N)N)C(=O)N[C@@H](CCCCN)C(=O)N[C@@H](CCCNC(=N)N)C(=O)N[C@@H](CCC(N)=O)C(=O)N[C@@H](CCC(N)=O)C(N)=O)[C@@H](C)CC)[C@@H](C)CC)[C@@H](C)O)[C@@H](C)O)C(C)C)C(C)C [Melittin]
Cell Viability ± SD: 7.2 ± 0.03 %
